Test results reported in US7833979B2, “Toxin peptide therapeutic agents” (Amgen Inc., priority 2005, dated 2010).

Amino acid sequences for entries named in this document (tags omitted).
UniProt P22001, whole entry: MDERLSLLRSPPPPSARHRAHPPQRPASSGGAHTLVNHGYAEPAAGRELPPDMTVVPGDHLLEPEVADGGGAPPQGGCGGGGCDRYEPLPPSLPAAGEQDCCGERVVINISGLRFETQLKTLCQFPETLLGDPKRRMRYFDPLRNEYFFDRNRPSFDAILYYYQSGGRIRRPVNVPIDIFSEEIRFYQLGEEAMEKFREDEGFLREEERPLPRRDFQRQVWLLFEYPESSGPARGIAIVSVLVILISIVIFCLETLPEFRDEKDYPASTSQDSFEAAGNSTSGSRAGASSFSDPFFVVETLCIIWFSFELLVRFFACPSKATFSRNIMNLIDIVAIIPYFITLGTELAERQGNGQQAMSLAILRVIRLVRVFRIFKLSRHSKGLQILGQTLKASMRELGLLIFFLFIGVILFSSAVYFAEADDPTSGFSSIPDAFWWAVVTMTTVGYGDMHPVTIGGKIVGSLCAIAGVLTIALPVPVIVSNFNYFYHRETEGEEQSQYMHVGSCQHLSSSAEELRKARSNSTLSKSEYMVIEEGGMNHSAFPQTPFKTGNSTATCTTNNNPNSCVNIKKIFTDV
UniProt Q09470, whole entry: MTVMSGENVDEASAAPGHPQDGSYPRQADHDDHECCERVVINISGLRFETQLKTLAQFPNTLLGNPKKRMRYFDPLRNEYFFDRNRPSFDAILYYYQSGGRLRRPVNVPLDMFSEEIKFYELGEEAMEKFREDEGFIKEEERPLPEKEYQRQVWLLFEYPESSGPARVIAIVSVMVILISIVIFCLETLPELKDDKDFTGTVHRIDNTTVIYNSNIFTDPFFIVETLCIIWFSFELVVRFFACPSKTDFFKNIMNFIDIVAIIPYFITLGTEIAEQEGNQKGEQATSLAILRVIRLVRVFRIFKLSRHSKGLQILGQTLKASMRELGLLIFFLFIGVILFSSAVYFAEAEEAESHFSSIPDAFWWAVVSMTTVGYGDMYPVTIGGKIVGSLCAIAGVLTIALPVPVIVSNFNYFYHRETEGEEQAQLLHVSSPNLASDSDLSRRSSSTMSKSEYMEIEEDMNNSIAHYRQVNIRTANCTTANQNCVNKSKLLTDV

Experiments:
Kv1.3 = Kv1.3 (Homo sapiens, UniProt P22001); experiment: Whole cell patch clamp electrophysiology on HEK293 cells stably expressing human Kv1.3; assay type: cell-based; settings: ratio of hKv1.1 IC50 to hKv1.3 IC50
human Kv1.1 = biological target: T1, human Kv1.1 (Homo sapiens, UniProt Q09470); experiment: Whole cell patch clamp electrophysiology, HEK293 cell expression system, human Kv1.1; assay type: cell-based
T1 construct: expressed in transfected cells; host or cells: HEK293

## CC[C@H](C)[C@@H]1NC(=O)[C@H](CCCCN)NC(=O)[C@@H](NC(=O)[C@H](CCCCN)NC(=O)[C@@H](NC(=O)[C@H](CC(N)=O)NC(=O)[C@@H](NC(=O)[C@@H](NC(=O)[C@@H](NC(=O)CN)C(C)C)[C@@H](C)CC)[C@@H](C)CC)C(C)C)CSSC[C@@H]2NC(=O)[C@H](CCCCN)NC(=O)CNC(=O)[C@H](Cc3ccccc3)NC(=O)[C@H](CCCNC(=N)N)NC(=O)[C@H](CCSC)NC(=O)CNC(=O)[C@H](C)NC(=O)[C@H](CCCCN)NC(=O)[C@H](CCCCN)NC(=O)[C@@H]3CSSC[C@@H](C(=O)N[C@H](C(=O)N4CCC[C@H]4C(=O)N[C@@H](CCCCN)C(=O)O)[C@@H](C)O)NC(=O)[C@H](Cc4c[nH]cn4)NC(=O)[C@H](CSSC[C@H](NC(=O)[C@H](CCC(N)=O)NC(=O)[C@H](CCCNC(=N)N)NC(=O)[C@H](CO)NC1=O)C(=O)N[C@@H](CC(C)C)C(=O)N[C@@H](CCC(=O)O)C(=O)N1CCC[C@H]1C(=O)N3)NC(=O)[C@H](CCCCN)NC(=O)CNC(=O)[C@H](CC(N)=O)NC(=O)[C@H](CCSC)NC2=O [OSK1, reference compound]
Kv1.3
  selectivity ratio hKv1.1/hKv1.3: 4
Human Kv1.1
  Potency and selectivity Kv1.3 versus Kv1.1 (in words): more potent in inhibiting human Kv1.3 when compared to Kv1.1
